Measured values published in patent publication US20260137795A1 (IMMUNOME, published 2026).

Assays:
[1] = biological target: T1, human ROR-1 endogenously expressed on JeKo-1 and MDA-MB-468 cells (human, UniProt Q01973); experiment: cell-based or functional assay
Hu/Cy/Rh ROR1 - His = biological target: T2, Hu/Cy/Rh ROR1 - His (human/cynomolgus/rhesus, UniProt Q01973, in part); experiment: SPR, purified Hu/Cy/Rh ROR1-His
T2 construct: Purified His-tagged protein; also called HUMAN/CYNO/RHESUS ROR-1; not shown: His tag

[2] = biological target: T1, human ROR-1 endogenously expressed on …; experiment: flow cytometry on MDA-MB-468 cells, titrated antibody detected with a labeled secondary antibody, % Top MFI (cellular binning with Dy650-UC961)

B1: ATX-P-890 (antibody, human IgG1, kappa, V domains shown)
VH: QVQLVQSGAEVKKPGASVKVSCKASGYTFTGYYMHWVRQAPGQGLEWMGWINPNSGGTNYAQKFQGRVTMTRDTSISTAYMELSRLRSDDTAVYYCVRDQVQLERFDSWGQGTLVTVSS
VL: [gap - about 100 residues]
notes: human IgG1 heavy chain and kappa light chain
[1]
  Cellular Internalization, JeKo-1 (%): 70%
  Cellular Internalization, MDA-MB-468(%): 80%
Hu/Cy/Rh ROR1 - His
  Kd: 8.4 nM
  koff: 0.00314 s⁻¹
  kon: 392000 M⁻¹ s⁻¹
[2]
  EC50 (read off the curve): ~0.8 nM
